According to patent US20130295185A1, “COMPOUNDS AND METHODS FOR INDUCING APOPTOSIS IN CANCER CELLS USING A BH3 ALPHA-HELICAL MIMETIC” (H. Lee Moffitt Cancer Center and Research Institute, Inc., priority 2011, published 2013):

Experiments:
LNCaP cells = assay: PARP cleavage in LNCaP cells; settings: tested form: diammonium salt (as drawn, CO2NH4)
Method: (§1) FIG. 6 is a series of images illustrating BH3-M6 induces apoptosis in a Bcl-2-, Bcl-XL-, and Mcl-1-dependent manner. BH3-M6 induces caspase-3/-7 activities and apoptosis in Bcl-XL/Bim, Bcl-2/Bim and Mcl-1/Bim overexpressing cells. MDA-MB-468 cells transfected with Bcl-XL-IRES-BimEL, Bcl-2-IRES-BimEL, and Mcl-1-IRES-BimEL were grown in 100-mm plates and treated with 0, 25, 50, or 100 μM BH3-M6 or 100 μM of TPC for 24 h at 37° C. Cells were then harvested and lysed using 0.2% NP-40 lysis buffer (without protease and phosphatase inhibitors for cell-free caspase assay and with protease and phosphatase inhibitors for Western blot analysis). (A) Caspase-3/-7 activity was determined by incubating whole-cell extracts with caspase-3/-7 substrate and measuring free AMCs (left panel), apoptosis was quantified by TUNEL assay (middle panel), gray: TPC, black: BH3-M6. BimEL, Bcl-XL, Bcl-2 and Mcl-1 expression levels were determined by Western blotting (right panel). (B) PARP cleavage by Western blotting. (C) Expression levels of different anti- and pro-apoptotic proteins in DU-145 and LNCaP cells as determined by Western blotting. (D) BH3-M6 induces apoptosis in LNCaP human prostate cancer cells expressing Bax, but not in DU-145 human prostate cancer cells lacking detectable Bax expression. LNCaP and DU-145 cells were treated with 0, 25 and 50 μM of BH3-M6 or 50 μM of TPC for 24 h. Cells were lysed and subjected to Western blot analysis. (E) Depletion of Bax, but not Bak by siRNA renders LNCaP cells resistant to apoptosis. LNCaP cells were transfected with 10 nM Bax or Bak siRNA or control siRNA for 48 h, followed by 24 h treatment with or without 25 or 50 μM BH3-M6. Cells were lysed and subjected to Western blot analysis with the indicated antibodies.
Bax and Bak expression levels were silenced by siRNA using a transfection protocol previously described by the inventors and incorporated herein by reference. […]

MDA-MB-468 control cells = assay: Caspase-3/-7 activation and TUNEL in MDA-MB-468 control cells; settings: 24 h, tested form: diammonium salt (as drawn, CO2NH4)
Method: as §1, with “Cells were lysed and subjected to Western blot analysis. (E) Depletion of Bax, but not Bak by siRNA renders LNCaP cells resistant to apoptosis. LNCaP cells were transfected with 10 nM Bax or Bak siRNA or control siRNA for 48 h, followed by 24 h treatment with or without 25 or 50 μM BH3-M6. Cells were lysed and subjected to Western blot analysis with the indicated antibodies.” left out

CC(C)Cc1cc(-c2ccc(-c3ccc(CCC(=O)O)cc3CC(C)C)cc2Cc2ccccc2)ccc1OCC(=O)O
PARP cleavage (LNCaP cells; LNCaP (high Bax), 25 and 50 μM BH3-M6 or 50 μM TPC, 24 h): induced PARP cleavage in LNCaP cells | BH3-M6-induced PARP cleavage after Bak siRNA silencing (LNCaP cells; LNCaP, 10 nM Bak siRNA 48 h, then 24 h treatment): but not Bak | BH3-M6-induced PARP cleavage after Bax siRNA silencing (LNCaP cells; LNCaP, 10 nM Bax siRNA 48 h, then 24 h treatment): prevented | apoptosis by caspase-3/-7 activation and TUNEL assays (MDA-MB-468 control cells): little apoptosis
